Reference: ChEMBL document CHEMBL1150874, “Antiviral phenylpropanoid glycosides from the medicinal plant Markhamia lutea” (J Nat Prod, 1998)

Assay: Selectivity index, ratio of EC50 for VZV 3CV-1 by plaque neutralization over IC50 for human Hep2 cells
Type: functional, HEp-2

## Nc1nc2c(ncn2COC(CO)CO)c(=O)[nH]1 [GANCICLOVIR]
  Ratio IC50/EC50: 74
